Consider one compound from patent US9624208B2, “Benzoxazolinone compounds with selective activity in voltage-gated sodium channels” (Merck Sharp & Dohme Corp., priority 2012, dated 2017).

Amino acid sequences for entries named in this document (tags omitted).
UniProt Q15858, whole entry: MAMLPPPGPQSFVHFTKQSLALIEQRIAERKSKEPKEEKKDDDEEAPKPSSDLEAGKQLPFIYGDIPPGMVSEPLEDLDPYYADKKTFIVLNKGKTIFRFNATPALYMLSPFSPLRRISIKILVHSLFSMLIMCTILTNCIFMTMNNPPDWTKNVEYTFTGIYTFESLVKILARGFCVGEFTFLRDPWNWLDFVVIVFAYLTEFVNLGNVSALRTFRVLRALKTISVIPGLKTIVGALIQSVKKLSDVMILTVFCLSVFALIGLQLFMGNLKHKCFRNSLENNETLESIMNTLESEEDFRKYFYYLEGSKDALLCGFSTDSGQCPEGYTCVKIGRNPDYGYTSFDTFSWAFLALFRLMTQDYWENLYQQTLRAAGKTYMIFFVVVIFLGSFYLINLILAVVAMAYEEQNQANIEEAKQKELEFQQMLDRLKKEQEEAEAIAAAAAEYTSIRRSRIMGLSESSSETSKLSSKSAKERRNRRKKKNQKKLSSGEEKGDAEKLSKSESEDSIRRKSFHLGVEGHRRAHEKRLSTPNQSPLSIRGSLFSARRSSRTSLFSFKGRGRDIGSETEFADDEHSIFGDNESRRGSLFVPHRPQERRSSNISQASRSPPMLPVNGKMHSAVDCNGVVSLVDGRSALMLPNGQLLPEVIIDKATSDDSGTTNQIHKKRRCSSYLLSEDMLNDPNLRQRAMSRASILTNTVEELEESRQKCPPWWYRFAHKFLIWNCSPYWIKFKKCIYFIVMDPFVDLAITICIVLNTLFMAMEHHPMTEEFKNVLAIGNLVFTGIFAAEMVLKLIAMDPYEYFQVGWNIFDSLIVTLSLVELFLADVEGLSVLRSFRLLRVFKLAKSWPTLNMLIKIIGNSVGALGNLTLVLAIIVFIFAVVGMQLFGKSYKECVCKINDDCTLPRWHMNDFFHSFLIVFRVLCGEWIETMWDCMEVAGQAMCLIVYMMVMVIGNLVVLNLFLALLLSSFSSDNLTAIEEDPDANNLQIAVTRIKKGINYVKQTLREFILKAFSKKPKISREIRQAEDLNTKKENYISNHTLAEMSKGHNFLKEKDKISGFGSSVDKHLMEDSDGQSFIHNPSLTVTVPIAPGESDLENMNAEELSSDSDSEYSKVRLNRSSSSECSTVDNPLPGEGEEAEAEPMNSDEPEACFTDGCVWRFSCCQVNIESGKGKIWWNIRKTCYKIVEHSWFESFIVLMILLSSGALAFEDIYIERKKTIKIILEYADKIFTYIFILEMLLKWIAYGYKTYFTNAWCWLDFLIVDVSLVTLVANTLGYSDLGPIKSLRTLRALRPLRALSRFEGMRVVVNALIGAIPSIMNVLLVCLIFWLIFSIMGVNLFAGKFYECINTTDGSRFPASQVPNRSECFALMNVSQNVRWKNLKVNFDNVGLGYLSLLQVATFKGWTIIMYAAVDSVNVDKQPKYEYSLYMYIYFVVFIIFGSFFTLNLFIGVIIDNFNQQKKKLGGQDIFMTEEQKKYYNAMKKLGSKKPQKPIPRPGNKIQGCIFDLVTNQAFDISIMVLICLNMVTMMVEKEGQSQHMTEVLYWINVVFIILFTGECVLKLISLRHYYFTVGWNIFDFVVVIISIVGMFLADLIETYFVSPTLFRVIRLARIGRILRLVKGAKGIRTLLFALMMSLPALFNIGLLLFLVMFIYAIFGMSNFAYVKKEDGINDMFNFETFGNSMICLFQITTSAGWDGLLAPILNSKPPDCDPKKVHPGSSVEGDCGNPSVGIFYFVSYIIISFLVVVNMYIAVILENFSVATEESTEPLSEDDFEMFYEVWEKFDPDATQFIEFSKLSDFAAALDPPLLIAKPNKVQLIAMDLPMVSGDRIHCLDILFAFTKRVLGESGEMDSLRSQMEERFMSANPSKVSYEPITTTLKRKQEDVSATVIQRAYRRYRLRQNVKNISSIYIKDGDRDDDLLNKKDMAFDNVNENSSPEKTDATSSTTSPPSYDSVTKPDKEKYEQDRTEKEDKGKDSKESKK
UniProt Q14524, whole entry: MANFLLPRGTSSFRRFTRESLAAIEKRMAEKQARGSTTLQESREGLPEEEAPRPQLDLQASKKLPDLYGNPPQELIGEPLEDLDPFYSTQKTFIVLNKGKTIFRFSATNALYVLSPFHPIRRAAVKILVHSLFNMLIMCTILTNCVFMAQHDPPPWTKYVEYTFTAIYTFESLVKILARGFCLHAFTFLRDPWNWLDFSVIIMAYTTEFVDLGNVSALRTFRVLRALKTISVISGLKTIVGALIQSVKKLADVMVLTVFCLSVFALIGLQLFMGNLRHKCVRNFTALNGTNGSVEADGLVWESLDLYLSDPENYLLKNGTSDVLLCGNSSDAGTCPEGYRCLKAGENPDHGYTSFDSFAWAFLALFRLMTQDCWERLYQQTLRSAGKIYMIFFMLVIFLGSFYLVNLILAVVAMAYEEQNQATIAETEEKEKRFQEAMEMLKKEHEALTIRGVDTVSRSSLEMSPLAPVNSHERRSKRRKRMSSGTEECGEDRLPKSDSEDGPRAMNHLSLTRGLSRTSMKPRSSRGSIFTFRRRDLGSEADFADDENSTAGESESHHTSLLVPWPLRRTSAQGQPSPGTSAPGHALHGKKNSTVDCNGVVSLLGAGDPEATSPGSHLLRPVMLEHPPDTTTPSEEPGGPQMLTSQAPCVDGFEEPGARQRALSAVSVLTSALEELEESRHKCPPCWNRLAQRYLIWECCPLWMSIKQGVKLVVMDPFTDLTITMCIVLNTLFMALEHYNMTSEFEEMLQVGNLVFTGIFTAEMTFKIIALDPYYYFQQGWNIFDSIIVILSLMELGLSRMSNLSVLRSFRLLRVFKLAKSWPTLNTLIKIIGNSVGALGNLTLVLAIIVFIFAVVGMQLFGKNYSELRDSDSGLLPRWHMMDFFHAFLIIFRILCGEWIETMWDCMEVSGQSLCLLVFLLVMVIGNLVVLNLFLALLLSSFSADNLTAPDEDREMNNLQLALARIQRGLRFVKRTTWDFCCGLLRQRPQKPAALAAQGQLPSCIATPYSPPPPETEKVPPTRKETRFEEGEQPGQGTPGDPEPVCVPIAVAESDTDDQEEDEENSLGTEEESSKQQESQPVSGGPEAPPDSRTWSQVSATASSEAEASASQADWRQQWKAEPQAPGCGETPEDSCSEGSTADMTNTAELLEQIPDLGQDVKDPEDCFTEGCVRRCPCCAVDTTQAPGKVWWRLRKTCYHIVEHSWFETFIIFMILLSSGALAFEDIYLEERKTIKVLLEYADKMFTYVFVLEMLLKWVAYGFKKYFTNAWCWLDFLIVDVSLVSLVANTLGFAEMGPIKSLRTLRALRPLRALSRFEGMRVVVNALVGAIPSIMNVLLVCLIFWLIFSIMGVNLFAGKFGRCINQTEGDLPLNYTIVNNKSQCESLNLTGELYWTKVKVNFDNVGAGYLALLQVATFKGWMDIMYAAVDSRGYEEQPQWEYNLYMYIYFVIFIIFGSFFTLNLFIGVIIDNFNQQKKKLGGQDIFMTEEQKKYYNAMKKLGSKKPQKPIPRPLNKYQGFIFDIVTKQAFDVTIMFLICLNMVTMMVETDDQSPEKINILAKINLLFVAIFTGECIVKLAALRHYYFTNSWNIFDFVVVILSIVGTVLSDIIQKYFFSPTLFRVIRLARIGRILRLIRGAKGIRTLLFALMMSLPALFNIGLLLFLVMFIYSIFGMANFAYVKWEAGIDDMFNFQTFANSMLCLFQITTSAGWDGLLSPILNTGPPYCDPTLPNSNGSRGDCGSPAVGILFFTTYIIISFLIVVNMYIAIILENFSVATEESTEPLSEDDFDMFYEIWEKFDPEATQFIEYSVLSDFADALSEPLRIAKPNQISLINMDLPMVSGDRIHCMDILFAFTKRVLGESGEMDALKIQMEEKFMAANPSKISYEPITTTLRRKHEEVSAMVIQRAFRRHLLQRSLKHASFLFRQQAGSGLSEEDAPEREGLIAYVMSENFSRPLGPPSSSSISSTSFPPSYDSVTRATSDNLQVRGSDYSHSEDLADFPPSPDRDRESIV

The target of one experiment is human Nav1.7 (Homo sapiens, UniProt Q15858). In words: PatchXpress sodium current measurement, inactivated state block, Nav1.7. In kind it is cell-based. To be noted: read-out: potency for the Nav 1.7 sodium ion channel (1.7=), channels stably expressed in HEK 293 cells, double-pulse protocol, 22° C. On the procedure: (§1) Cell Based Assays for Nav 1.7 and Nav 1.5 Activity
(§2) Compounds were tested on human Nav1.7 and Nav1.5 channels stably expressed in HEK 293 cells.
(§3) Sodium Current Measurements on the PatchXpress 7000:
(§4) To measure inactivated state block of sodium channels, test compounds were characterized in an automated PatchXpress® assay (Molecular Devices) using a double-pulse protocol on human Nav1.7 and Nav1.5 channels stably expressed in HEK 293 cells. Cells were held at a potential 20 mV negative to the potential at which ˜50% of the channels are inactivated. A 8000 ms pre-pulse 7 mV positive to the potential at which ˜50% of the channels are inactivated was given followed by a hyperpolarizing 2 ms pulse to −120 mV and a 20 ms test pulse to −20 mV. The protocol was applied to cells in the absence, presence of compound and after washout. The temperature of PatchXpress® instruments was maintained at 22° C. The following recording solutions were used. Internal solution (mM): 30 CsCl, 5 HEPES, 10 EGTA, 120 CsF, 5 NaF, 2 MgCl2, pH 7.3 with CsOH. External solution (mM): 120 NMDG, 40 NaCl, 1 KCl, 0.5 MgCl2, 5 HEPES, 2.7 CaCl2, pH 7.5 with NMDG-OH. Estimated IC50 values were calculated based on at least two compound concentrations tested. […] IC50 values were determined by fitting to the Hill equation.

A further experiment deals with human Nav1.5 (Homo sapiens, UniProt Q14524). In words: PatchXpress sodium current measurement, inactivated state block, Nav1.5. In kind it is cell-based. Particulars: determined by PatchXpress measurement, HEK 293 cells. The method, then:
as §1, §2, §3, §4

`C[C@H](c1ccccc1C1=CCCNC1)n1c(=O)oc2cc(S(=O)(=O)Nc3cccc(F)n3)c(F)cc21`: the IC50 on human Nav1.7 was 52 nM. On human Nav1.5, the “ratio of Nav 1.5:Nav 1.7 potency” value is recorded as 1475.
